Test results taken from patent US5077034A, “Treatment of tumors with 5-radioiodo-2'-deoxyuridine” (priority 1990, dated 1991).

Tests used:
[1] = test system: 9L gliosarcoma; assay: scintigraphic imaging of intracerebral 9L gliosarcoma-bearing and sham-operated rats
[2] = test system: 9L gliosarcoma; assay: biodistribution of radioactivity 40 h after intracerebral injection in 9L gliosarcoma-bearing and sham-operated rats
[3] = test system: murine ovarian tumor (MOT); assay: biodistribution after i.p. injection in mice with murine ovarian tumor (MOT); type: in vivo, C3HeB/FeJ mice; details: 5 i.p. injections 4 h apart, 24 h after last injection
Experimental: The murine ovarian tumor (MOT) used in these experiments arose spontaneously in the ovary of a C3H mouse and is maintained in our laboratories by serial intraperitoneal [i.p.] transplantation in female C3HeB/FeJ mice. We have examined the appropriateness of the i.p. route for IUdR administration as a means to (i) bypass the rapid intrahepatic dehalogenation of this agent, and (ii) obtain high tumor to nontumor ratios. In these experiments, mice were injected with 10^6 tumor cells 24 h prior to the i.p. administration of ^125 IUdR [5 injections, 4 h apart]. […] Tumor-to-normal-tissue ratios derived from th biodistribution results ranged from 20 for organs with actively proliferating cells (for example uterus, intestine, stomach) to over 400 for organs with nondividing cells (brain, heart).

| SMILES | ratio of mean counts per pixel in the head, tumor bearing / control ([1]; 1 h after injection) | ratio of mean counts per pixel in the head, tumor bearing / control (maximum) ([1]; by 38 h) | tumor to normal tissue ratios, all the tissues ([2]; 40 h, FIG. 3) | uptake in a tumor that occupied a large portion of the right brain specimen ([2]; one animal, 40 h after injection) | right brain/blood ratio ([2]; tumor-bearing animals, 40 h) | right brain/frontal lobes ratio ([2]; tumor-bearing animals, 40 h) | right brain/left brain ratio ([2]; tumor-bearing animals, 40 h) | tumor to non-tumor ratios ([3]; FIG. 4) | tumor-to-normal-tissue ratio, organs with nondividing cells ([3]; brain, heart) | tumor-to-normal-tissue ratio, organs with actively proliferating cells ([3]; uterus, intestine, stomach) |
| --- | --- | --- | --- | --- | --- | --- | --- | --- | --- | --- |
| O=c1[nH]c(=O)n([C@H]2C[C@H](O)[C@@H](CO)O2)cc1[123I] [^123 IUdR, 5-[^123 I/^125 I]iodo-2'-deoxyuridine] | at least twice | 3.8 | eight | 25 % of the ID | 9 | 71 | 22 | – | – | – |
| O=c1[nH]c(=O)n([C@H]2C[C@H](O)[C@@H](CO)O2)cc1[125I] [^125 IUdR, 5-[^123 I/^125 I]iodo-2'-deoxyuridine] | – | – | – | – | – | – | – | extremely favorable | over 400 | 20 |
